We go through 1 substance from publication PMC6061685 (Toxicological Sciences, 2018).

The experiment deals with T1, thyroid receptor beta (TRβ) (Homo sapiens, UniProt P10828).
T1 sequence (P10828 1-461): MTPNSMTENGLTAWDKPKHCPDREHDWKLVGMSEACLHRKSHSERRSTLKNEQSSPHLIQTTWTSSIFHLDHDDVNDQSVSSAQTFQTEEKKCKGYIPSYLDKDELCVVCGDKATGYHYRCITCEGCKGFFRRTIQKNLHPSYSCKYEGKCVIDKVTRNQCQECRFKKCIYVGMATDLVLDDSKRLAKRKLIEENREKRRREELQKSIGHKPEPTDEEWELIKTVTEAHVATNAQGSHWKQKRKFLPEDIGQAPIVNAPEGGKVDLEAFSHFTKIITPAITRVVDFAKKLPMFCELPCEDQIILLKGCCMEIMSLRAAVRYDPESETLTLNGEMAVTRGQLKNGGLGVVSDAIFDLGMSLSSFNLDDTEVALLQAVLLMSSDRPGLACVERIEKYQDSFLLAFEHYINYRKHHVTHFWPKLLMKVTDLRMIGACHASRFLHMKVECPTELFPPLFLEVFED
The experiment is described as follows: U2OS TRβ CALUX antagonist assay. It counts as cell-based. Particulars: 24 h exposure; with EC50 concentration of T3 ([…] 10^−4 µg/ml).

For “1-850 thyroid hormone receptor antagonist [TR antagonist (1-850)]”, the “TRβ Antagonist Assay IC50” value was 1.9 µg/mL.
